Measurements taken from US10919841B2, “Monoamine reuptake inhibitors” (Research Triangle Institute, priority 2009, dated 2021).

Amino acid sequences for entries named in this document (tags omitted).
UniProt P23975, whole entry: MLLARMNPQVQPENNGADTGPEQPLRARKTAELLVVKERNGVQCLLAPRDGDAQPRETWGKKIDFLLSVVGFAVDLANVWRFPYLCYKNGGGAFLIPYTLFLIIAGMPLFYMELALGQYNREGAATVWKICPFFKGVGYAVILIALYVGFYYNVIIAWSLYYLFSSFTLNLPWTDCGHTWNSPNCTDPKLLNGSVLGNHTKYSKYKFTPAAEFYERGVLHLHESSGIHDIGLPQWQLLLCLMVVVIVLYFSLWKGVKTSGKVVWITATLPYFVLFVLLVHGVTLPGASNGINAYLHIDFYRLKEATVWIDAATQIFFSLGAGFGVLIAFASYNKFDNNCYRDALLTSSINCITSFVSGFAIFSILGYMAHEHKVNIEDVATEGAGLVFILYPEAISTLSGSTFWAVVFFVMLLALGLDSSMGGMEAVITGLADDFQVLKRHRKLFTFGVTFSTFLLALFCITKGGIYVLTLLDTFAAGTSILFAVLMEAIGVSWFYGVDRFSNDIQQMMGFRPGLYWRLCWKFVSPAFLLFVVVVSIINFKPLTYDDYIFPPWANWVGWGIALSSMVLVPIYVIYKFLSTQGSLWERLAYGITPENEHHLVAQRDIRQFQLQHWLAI

Legend:
(h)NET [1] = biological target: T1, (h)NET (Homo sapiens, UniProt P23975)
(h)NET [2] = biological target: T1, (h)NET; test: block of [3H]norepinephrine reuptake in HEK-(h)NET cells

CC(NC(C)(C)C)C(=O)c1cccc(Cl)c1 (racemic) [Compound 2a, (±)-2-tert-butylamino-3′-chloropropiophenone, reference compound]
Ki ((h)NET [1]): 6.97 µM
IC50 ((h)NET [2]): 0.443 µM
